In this test the target is 5-hydroxytryptamine receptor 2B (Rattus norvegicus, UniProt P30994).

Sequences of proteins named here, by UniProt entry; tags and fusion partners are left off.
UniProt P30994, whole entry: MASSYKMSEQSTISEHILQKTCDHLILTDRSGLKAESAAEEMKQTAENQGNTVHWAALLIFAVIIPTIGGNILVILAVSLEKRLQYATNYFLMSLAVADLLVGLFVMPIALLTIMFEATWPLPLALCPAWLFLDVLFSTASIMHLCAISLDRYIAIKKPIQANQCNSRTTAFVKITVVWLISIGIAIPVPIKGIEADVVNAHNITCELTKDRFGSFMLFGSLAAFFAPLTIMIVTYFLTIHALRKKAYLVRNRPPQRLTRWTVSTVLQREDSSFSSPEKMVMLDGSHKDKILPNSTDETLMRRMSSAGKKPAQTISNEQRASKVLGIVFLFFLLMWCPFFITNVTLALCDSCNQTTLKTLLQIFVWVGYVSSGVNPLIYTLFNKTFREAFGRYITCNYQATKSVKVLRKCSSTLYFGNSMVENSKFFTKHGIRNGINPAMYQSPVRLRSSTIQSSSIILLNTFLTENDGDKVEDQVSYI

By Ki is commonly meant the equilibrium dissociation constant of an inhibitor or competing ligand from its target. Low values mean tighter binding, high ones weaker binding.

As for `COc1cc(CC(C)N)c(OC)cc1Br` (stereo not drawn) [2-(4-Bromo-2,5-dimethoxy-phenyl)-1-methyl-ethylamine((-)-DOB)], the affinity, expressed as Ki, was 21.8 nM.

The record behind these values is BindingDB's records for doi:10.1007/pl00005315 (Eli Lilly, 1999).
